The target of one assay is PI3K-β (Homo sapiens (Human), UniProt P42338). As to the kind of experiment: In vitro enzyme inhibition assay (Kinase Glo). In kind it is biochemical. The method, then:
(§1) The inhibition of PI3K-β, PI3K-α, PI3K-γ and PI3K-δ was evaluated in a Kinase Glo based enzyme activity assay using human recombinant enzymes. The assay platform indirectly measured the depletion of ATP after incubation with enzyme, PIP2 substrate, ATP and compound.
After completion of the enzyme reaction the remaining ATP was used in a secondary enzymatic reaction, where Luciferase converted beetle luciferin into oxyluciferin under the emission of light. A direct relationship existed between the luminescence measured and the ATP remaining in a completed kinase reaction. Therefore, the luminescence was inversely related to the kinase activity. […]
Compounds in 100% DMSO were added to assay plates by acoustic dispensing. […] The enzyme reaction was stopped after 80 minutes by the addition of Kinase Glo detection solution containing Lucferin and Luciferase (from Kinase Glo® Plus Luminecent Kinase Assay kit (Promega #V3772). Plates were left for 30 minutes at room temperature then read on a Pherastar Instrument with a standard Luminescence filter block. The final concentration of DMSO, ATP and PIP2 in the assay were, 1%, 8 μM, and 80 μM respectively.
IC50 values were calculated using a log curve fitting to a non-linear regression fit. […]
For orientation: Kinase-Glo measures the ATP left after a reaction by luminescence.

Chains of the proteins cited; added tags and fusions are not shown. Lines headed by an entry give the natural chain unless they say otherwise; changes in a name come on top.
UniProt P42338: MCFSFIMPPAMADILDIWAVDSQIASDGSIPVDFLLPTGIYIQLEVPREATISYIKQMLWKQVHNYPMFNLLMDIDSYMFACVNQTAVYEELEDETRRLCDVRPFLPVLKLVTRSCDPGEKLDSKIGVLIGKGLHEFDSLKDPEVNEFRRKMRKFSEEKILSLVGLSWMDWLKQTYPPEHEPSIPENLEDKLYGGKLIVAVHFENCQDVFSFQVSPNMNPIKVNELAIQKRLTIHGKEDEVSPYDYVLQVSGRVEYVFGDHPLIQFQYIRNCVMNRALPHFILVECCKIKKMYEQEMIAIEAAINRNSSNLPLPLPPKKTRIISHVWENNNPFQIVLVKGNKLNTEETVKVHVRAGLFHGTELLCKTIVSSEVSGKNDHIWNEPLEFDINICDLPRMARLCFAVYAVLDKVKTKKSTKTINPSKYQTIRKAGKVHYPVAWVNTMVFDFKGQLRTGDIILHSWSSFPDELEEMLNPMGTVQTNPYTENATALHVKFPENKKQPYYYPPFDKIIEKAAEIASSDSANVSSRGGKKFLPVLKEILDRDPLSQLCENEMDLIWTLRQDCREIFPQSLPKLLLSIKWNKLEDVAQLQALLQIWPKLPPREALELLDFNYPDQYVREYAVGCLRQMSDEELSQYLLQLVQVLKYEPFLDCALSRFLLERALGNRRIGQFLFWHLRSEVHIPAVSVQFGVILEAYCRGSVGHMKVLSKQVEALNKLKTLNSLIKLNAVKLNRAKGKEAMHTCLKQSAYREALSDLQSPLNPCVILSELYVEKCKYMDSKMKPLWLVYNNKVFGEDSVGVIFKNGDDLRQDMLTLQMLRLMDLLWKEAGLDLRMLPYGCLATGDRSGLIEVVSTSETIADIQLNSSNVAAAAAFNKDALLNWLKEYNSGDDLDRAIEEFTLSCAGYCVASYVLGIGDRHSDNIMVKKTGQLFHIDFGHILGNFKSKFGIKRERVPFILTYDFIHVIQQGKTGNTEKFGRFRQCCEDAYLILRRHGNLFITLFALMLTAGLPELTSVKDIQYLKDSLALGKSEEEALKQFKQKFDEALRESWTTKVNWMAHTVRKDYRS
UniProt P42336, whole entry K111N, looked up: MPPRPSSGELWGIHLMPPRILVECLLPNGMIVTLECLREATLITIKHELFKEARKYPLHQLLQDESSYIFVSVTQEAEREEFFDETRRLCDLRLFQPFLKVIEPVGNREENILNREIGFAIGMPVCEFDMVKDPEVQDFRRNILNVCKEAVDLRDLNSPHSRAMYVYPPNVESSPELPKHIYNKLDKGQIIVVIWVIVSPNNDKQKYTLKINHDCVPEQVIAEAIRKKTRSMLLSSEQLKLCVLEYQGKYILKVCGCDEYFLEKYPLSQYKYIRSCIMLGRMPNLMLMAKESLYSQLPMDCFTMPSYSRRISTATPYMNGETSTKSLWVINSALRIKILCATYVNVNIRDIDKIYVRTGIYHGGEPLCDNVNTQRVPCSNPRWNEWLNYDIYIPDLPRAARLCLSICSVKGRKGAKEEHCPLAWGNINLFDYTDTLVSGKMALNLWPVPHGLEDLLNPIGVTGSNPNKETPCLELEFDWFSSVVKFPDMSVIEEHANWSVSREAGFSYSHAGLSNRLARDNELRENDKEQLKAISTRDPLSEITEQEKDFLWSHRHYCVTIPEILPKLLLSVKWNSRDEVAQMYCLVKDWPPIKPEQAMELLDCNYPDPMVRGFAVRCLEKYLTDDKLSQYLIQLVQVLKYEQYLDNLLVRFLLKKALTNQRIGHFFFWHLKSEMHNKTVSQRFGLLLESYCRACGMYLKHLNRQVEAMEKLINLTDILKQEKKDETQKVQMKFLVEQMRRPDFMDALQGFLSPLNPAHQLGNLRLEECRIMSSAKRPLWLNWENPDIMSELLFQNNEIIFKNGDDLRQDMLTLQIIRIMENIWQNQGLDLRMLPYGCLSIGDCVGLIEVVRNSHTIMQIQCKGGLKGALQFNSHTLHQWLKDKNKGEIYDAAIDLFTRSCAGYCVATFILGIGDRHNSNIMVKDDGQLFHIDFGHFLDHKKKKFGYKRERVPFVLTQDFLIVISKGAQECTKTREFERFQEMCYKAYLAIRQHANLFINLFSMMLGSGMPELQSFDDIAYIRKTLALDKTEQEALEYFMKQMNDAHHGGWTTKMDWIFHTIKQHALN
UniProt P42336, whole entry, looked up: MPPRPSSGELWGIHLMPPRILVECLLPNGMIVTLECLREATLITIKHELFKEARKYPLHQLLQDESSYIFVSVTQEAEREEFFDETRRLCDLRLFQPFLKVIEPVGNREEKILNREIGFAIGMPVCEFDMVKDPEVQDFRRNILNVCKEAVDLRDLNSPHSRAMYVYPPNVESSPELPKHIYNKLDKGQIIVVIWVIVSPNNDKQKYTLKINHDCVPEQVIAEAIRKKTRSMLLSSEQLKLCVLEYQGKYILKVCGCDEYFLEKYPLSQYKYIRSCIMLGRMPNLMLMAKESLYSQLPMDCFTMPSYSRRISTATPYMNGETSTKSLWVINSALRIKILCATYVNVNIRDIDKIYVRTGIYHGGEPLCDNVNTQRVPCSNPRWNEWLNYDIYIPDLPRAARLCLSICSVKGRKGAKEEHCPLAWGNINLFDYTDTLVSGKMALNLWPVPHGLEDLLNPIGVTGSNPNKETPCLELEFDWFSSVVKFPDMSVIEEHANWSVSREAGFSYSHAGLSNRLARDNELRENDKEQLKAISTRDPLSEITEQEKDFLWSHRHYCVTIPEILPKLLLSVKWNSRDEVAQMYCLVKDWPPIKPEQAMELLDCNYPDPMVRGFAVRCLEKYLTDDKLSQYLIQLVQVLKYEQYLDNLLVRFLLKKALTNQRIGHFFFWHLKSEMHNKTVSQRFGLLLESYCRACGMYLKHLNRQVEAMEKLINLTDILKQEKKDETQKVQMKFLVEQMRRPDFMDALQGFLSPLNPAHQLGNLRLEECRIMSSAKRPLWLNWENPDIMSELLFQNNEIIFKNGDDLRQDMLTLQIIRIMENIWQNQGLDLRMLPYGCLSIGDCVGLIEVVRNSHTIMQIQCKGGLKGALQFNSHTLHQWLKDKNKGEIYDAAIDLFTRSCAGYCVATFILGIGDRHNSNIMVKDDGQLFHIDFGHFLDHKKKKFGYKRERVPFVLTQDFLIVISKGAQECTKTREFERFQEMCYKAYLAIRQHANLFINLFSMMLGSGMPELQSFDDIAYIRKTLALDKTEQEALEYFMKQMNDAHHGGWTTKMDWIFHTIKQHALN

Assay [1] addresses PI3K-α (Homo sapiens (Human), UniProt P42336, K111N). As to the kind of experiment: Phosphorylated AKT (Thr308) in BT474 cells (PI3K-α cell assay). Type of assay: cell-based. The note with it: Test protocol c, mean of replicates.
Assay [2] addresses PI3K-α (Homo sapiens (Human), UniProt P42336). As to the kind of experiment: In vitro enzyme inhibition assay (Kinase Glo). In kind it is biochemical. Particulars: Test protocol a; mean of replicates. The method, then: as §1
After completion of the enzyme reaction the remaining ATP was used in a secondary enzymatic reaction, where Luciferase converted beetle luciferin into oxyluciferin under the emission of light. A direct relationship existed between the luminescence measured and the ATP remaining in a completed kinase reaction. Therefore, the luminescence was inversely related to the kinase activity.
Compounds in 100% DMSO were added to assay plates by acoustic dispensing. PI3K enzyme was added in a Tris buffer (50 mM Tris pH7.4, 0.05% CHAPS, 2.1 mM DTT, and 10 mM magnesium chloride) and allowed to preincubate with compound for 20 minutes prior to addition of substrate solution containing PIP2 and ATP. The enzyme reaction was stopped after 80 minutes by the addition of Kinase Glo detection solution containing Lucferin and Luciferase (from Kinase Glo® Plus Luminecent Kinase Assay kit (Promega #V3772). Plates were left for 30 minutes at room temperature then read on a Pherastar Instrument with a standard Luminescence filter block. The final concentration of DMSO, ATP and PIP2 in the assay were, 1%, 8 μM, and 80 μM respectively.
IC50 values were calculated using a log curve fitting to a non-linear regression fit.

Results on five compounds are retold here after patent US9156831B2, “Chemical compounds” (ASTRAZENECA AB, priority 2013, dated 2015).

Take `CCn1nc(C2CCN(C(=O)CCO)CC2)nc1-c1cnc(N)c(-c2nnc(C(C)(C)C)o2)n1` [Example 3, 1-(4-(5-(5-amino-6-(5-tert-butyl-1,3,4-oxadiazol-2-yl)pyrazin-2-yl)-1-ethyl-1H-1,2,4-triazol-3-yl)piperidin-1-yl)-3-hydroxypropan-1-one]: half-maximal inhibition against PI3K-β (IC50) was put at 570 nM.

As for `C[C@@H](O)CC(=O)N1CCC(c2nc(-c3cnc(N)c(-c4nnc(C(C)(C)C)o4)n3)n(C)n2)CC1` [Example 4, (3R)-1-[4-[5-[5-amino-6-(5-tert-butyl-1,3,4-oxadiazol-2-yl)pyrazin-2-yl]-1-methyl-1,2,4-triazol-3-yl]-1-piperidyl]-3-hydroxy-butan-1-one], the IC50 (usually the concentration that inhibits the measured activity by half) against PI3K-α [1] turned out to be 310 nM; on PI3K-α [2], 25 nM.

Consider `C[C@H](O)CC(=O)N1CCC(c2nc(-c3cnc(N)c(-c4nnc(C(C)(C)C)o4)n3)n(C)n2)CC1` [Example 5, (3S)-1-[4-[5-[5-amino-6-(5-tert-butyl-1,3,4-oxadiazol-2-yl)pyrazin-2-yl]-1-methyl-1,2,4-triazol-3-yl]-1-piperidyl]-3-hydroxy-butan-1-one], for which the IC50 against PI3K-α [2] was found to be 30 nM.

Turning to `C[C@H](CO)C(=O)N1CCC(c2nc(-c3cnc(N)c(-c4nnc(C(C)(C)C)o4)n3)n(C)n2)CC1` [Example 6, (2R)-1-[4-[5-[5-amino-6-(5-tert-butyl-1,3,4-oxadiazol-2-yl)pyrazin-2-yl]-1-methyl-1,2,4-triazol-3-yl]-1-piperidyl]-3-hydroxy-2-methyl-propan-1-one], half-maximal inhibition against PI3K-α [2] (IC50) was put at 32 nM.

On PI3K-α [2], `CCn1nc(C2CCN(C(=O)CC(=O)O)CC2)nc1-c1cnc(N)c(-c2nnc(C(C)(C)C)o2)n1` [Example 9, 3-[4-[5-[5-amino-6-(5-tert-butyl-1,3,4-oxadiazol-2-yl)pyrazin-2-yl]-1-ethyl-1,2,4-triazol-3-yl]-1-piperidyl]-3-oxo-propanoic acid] displayed a concentration for half-maximal inhibition (IC50) of under 10 nM.
